Laboratory results published in patent publication US9139577B2, “Sulfoximine substituted quinazolines for pharmaceutical compositions” (Boehringer Ingelheim International GmbH, priority 2013, dated 2015).
Like-named read-outs stand apart in the source and are kept apart here.

Chains of the proteins cited; added tags and fusions are not shown.
UniProt Q9BUB5, whole entry: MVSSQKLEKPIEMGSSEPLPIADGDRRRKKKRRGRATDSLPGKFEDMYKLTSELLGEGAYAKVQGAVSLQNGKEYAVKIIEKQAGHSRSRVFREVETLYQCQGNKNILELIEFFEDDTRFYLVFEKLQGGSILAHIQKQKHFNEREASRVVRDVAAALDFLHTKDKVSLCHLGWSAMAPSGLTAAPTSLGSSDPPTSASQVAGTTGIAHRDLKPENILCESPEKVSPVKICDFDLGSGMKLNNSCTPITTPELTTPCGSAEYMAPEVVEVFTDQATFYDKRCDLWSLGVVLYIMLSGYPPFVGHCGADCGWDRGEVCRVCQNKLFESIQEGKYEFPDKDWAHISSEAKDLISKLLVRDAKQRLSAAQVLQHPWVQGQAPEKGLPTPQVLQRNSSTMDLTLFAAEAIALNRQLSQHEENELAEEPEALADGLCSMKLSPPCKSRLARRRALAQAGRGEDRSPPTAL

Biological target: MNK1 (Homo sapiens (Human), UniProt Q9BUB5)
Test: MNK1 in vitro kinase assay (Assay 3), Z'-LYTE
Format: biochemical
[1] = compound concentration of 1 μM, assay 3

| SMILES | MNK1 % INH | MNK1 % INH [1] |
| --- | --- | --- |
| Cc1cc(N=S(C)(C)=O)cc2ncnc(Nc3ccc(F)cc3OC(C)C(F)(F)F)c12 (single isomer, unassigned) [7.002] | 73% | – |
| Cc1cc(N=S(C)(C)=O)cc2ncnc(Nc3ccc(F)cc3OC(C)C#N)c12 (single isomer, unassigned) [7.004] | – | 51% |
| CC(Oc1cc(F)ccc1Nc1ncnc2cc(N=S(C)(C)=O)cc(F)c12)C(F)(F)F (single isomer, unassigned) [7.007] | – | 67% |
